Results published in patent publication EP4549446A1 (priority 2023, dated 2025).

Test system: AML, ALL, and MM cell lines

SMILES: C[S+]([O-])CCCCN=C=S (stereo not shown) [SFN-1, sulforaphane, reference compound]
- viability of AML, ALL, and MM cell lines (MTT assay and flow cytometry, 0-100 µM, 18 h, HL60, KG1a, U937, MV-4-11, TMLCL, Jurkat, MM1.S, OPM-2, U266, compared to untreated control cells): significantly reduced the viability

SMILES: CC(C)OP(=O)(OCCCN=C=S)OC(C)C [SFN-15, Diisopropyl (3-isothiocyanatopropyl) phosphate]
- viability of AML, ALL, and MM cell lines: significantly reduced the viability
- viability of AML, ALL, and MM cell lines, free or α-CD-encapsulated: reduced the viability

SMILES: CCOP(=O)(CCCCN=C=S)OCC [SFN-14, Diethyl (4-isothiocyanatobutyl)phosphonate]
- viability of AML, ALL, and MM cell lines: significantly reduced the viability

SMILES: CCOP(=O)(NCCOCCOCCOCCN=C=S)OCC [SFN-4, Diethyl (11-isothiocyanato-3,6,9-trioxaundecan-1-yl)phosphoramidate]
- viability of AML, ALL, and MM cell lines: significantly reduced the viability

SMILES: CCOP(=O)(OCC)OCCCN=C=S [SFN-10, Diethyl (3-isothiocyanatopropyl) phosphate]
- viability of AML, ALL, and MM cell lines: significantly reduced the viability
- viability of AML, ALL, and MM cell lines, free or α-CD-encapsulated: reduced the viability

Where two headings read alike, the source gives them in different places.
